This experiment concerns the target Annexin I peptide. Briefly: ITC.

Regarding “S100A6 (from UniProt P06703 1-90) (natural protein)”, the stoichiometry N (binding sites per dimer) worked out at 2.
